Reference: ChEMBL document CHEMBL4627384, “l-Thyroxin and the Nonclassical Thyroid Hormone TETRAC Are Potent Activators of PPARγ” (J Med Chem, 2020)
Calls of active or inactive are those of the source. No cut-off for these calls is given here.

Sequences of proteins named here, by UniProt entry; tags and fusion partners are left off. A change or cut given only in a name is not applied to a line headed by its entry.
UniProt P37238, whole entry: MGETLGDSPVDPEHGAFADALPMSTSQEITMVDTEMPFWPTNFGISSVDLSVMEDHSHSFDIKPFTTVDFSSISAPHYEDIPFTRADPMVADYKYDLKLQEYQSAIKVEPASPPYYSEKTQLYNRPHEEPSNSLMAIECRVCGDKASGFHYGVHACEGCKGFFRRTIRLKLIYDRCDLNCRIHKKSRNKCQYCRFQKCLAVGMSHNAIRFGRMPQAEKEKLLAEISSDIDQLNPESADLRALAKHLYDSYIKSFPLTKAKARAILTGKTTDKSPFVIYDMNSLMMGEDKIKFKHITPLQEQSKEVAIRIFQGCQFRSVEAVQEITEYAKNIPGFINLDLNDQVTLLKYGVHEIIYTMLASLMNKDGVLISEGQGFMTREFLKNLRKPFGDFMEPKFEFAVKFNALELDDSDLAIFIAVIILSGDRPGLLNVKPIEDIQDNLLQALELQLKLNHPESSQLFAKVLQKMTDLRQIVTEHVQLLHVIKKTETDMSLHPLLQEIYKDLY
UniProt P08659, whole entry: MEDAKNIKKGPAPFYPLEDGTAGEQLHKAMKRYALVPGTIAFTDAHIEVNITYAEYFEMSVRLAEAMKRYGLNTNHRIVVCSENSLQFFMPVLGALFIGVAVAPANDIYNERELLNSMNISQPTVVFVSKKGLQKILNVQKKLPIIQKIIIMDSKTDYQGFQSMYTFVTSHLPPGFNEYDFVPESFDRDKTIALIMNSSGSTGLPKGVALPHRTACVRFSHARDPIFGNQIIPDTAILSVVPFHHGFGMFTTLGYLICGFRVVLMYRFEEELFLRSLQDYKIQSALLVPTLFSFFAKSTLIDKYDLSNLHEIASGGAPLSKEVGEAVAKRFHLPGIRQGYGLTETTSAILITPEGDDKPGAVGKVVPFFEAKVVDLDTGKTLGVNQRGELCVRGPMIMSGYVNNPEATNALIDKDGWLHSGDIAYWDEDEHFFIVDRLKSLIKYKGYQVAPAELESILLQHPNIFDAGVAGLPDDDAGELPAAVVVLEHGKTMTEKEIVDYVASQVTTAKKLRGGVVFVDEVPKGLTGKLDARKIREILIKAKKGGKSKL
UniProt P37231: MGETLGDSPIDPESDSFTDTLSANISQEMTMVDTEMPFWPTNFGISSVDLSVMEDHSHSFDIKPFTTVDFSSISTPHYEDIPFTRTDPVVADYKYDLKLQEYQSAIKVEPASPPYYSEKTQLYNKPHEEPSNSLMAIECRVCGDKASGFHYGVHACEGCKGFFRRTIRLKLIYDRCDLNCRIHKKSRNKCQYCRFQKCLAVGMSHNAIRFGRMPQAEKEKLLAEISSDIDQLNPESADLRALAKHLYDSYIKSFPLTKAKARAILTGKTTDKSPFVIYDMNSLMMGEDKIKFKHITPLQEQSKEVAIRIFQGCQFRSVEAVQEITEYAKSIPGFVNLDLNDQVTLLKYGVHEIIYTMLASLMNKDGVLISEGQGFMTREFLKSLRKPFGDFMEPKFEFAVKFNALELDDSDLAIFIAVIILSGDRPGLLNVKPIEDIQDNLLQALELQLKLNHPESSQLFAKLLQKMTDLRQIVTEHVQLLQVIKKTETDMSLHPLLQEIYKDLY

What was measured:
[1] = target: Peroxisome proliferator-activated receptor gamma (Mus musculus) (UniProt P37238); experiment: In vivo agonist activity at PPARgamma in RjOrl:Swiss CD-1 mouse assessed as induction of CD36 mRNA expression in fat tissue at 10 mg/kg, po administered as single dose measured after 8 hrs by qRT-PCR analysis; format: functional, organism-based
[2] = target: Peroxisome proliferator-activated receptor gamma (Mus musculus) (UniProt P37238); experiment: In vivo agonist activity at PPARgamma in RjOrl:Swiss CD-1 mouse assessed as induction of CD36 mRNA expression in liver at 10 mg/kg, po administered as single dose measured after 8 hrs by qRT-PCR analysis; format: functional, organism-based
[3] = target: Peroxisome proliferator-activated receptor gamma (Mus musculus) (UniProt P37238); experiment: In vivo agonist activity at PPARgamma in RjOrl:Swiss CD-1 mouse assessed as induction of CD36 mRNA expression in liver at 10 mg/kg, po administered as single dose measured after 24 hrs by qRT-PCR analysis; format: functional, organism-based
[4] = target: Peroxisome proliferator-activated receptor gamma (Mus musculus) (UniProt P37238); experiment: In vivo agonist activity at PPARgamma in RjOrl:Swiss CD-1 mouse assessed as induction of CD36 mRNA expression in fat tissue at 10 mg/kg, po administered as single dose measured after 24 hrs by qRT-PCR analysis; format: functional, organism-based
[5] = target: Peroxisome proliferator-activated receptor gamma (Mus musculus) (UniProt P37238); experiment: In vivo agonist activity at PPARgamma in RjOrl:Swiss CD-1 mouse assessed as induction of ADIPOQ mRNA expression in liver at 10 mg/kg, po administered as single dose measured after 24 hrs by qRT-PCR analysis; format: functional, organism-based
[6] = target: Peroxisome proliferator-activated receptor gamma (Mus musculus) (UniProt P37238); experiment: In vivo agonist activity at PPARgamma in RjOrl:Swiss CD-1 mouse assessed as induction of ADIPOQ mRNA expression in liver at 10 mg/kg, po administered as single dose measured after 8 hrs by qRT-PCR analysis; format: functional, organism-based
[7] = target: Luciferin 4-monooxygenase (Photinus pyralis) (UniProt P08659); experiment: Activation of firefly luciferase expressed in HEK293T cells at 3 uM incubated for 14 to 16 hrs by reporter gene assay; format: cell-based; conditions: HEK-293T
[8] = target: Peroxisome proliferator-activated receptor gamma (Homo sapiens, UniProt P37231); experiment: Agonist activity at recombinant human pFA-CMV fused PPARgamma LBD expressed in HEK293T cells transfected with pFR-luciferase plasmid and pRL-SV40 plasmid at 3 uM incubated for 14 to 16 hrs in presence of PPARgamma antagonist GW9662 by dual glo luciferase reporter gene assay; format: cell-based; conditions: HEK-293T

Activity [1] | Activity [2] | Activity [3] | Activity [4] | Activity [5] | Activity [6] | Activity [7] | Activity [8] | SMILES
inactive | inactive | Active | Active | Active | inactive | – | – | N[C@@H](Cc1cc(Br)c(Oc2cc(I)c(O)c(I)c2)c(I)c1)C(=O)O
– | – | – | – | – | – | inactive | inactive | O=C(O)Cc1cc(I)c(Oc2ccc(O)c(I)c2)c(I)c1 [TIRATRICOL]
Active | Active | Active | Active | Active | Active | – | – | O=C(O)Cc1cc(Br)c(Oc2cc(I)c(O)c(I)c2)c(I)c1
